The target in this assay is Polycomb protein EED (Homo sapiens, UniProt O75530). In words: Inhibition of human PRC2-EED (76 to 441 residues) expressed in Escherichia coli BL21 (DE3) using histone H3[21 to 44, K27MeO] as substrate and SAM as co-factor measured after 2 hrs by LC-MS/MS method.

By UniProt entry, the sequences of proteins in these tests, tags left out.
UniProt O75530, whole entry: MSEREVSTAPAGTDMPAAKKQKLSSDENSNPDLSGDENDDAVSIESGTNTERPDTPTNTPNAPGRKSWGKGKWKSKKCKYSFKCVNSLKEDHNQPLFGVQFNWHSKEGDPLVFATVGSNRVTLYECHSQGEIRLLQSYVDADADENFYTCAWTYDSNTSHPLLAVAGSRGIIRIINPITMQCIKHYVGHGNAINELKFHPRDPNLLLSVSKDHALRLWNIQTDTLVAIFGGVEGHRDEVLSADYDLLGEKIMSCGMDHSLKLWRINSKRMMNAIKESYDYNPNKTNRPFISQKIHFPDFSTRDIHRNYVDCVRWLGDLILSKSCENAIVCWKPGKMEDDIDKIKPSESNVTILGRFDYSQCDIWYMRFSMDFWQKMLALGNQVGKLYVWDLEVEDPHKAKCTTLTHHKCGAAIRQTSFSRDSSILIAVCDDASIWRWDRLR

IC50 data for 1 molecule are collected here from ChEMBL document CHEMBL4041529, “Structure-Guided Design of EED Binders Allosterically Inhibiting the Epigenetic Polycomb Repressive Complex 2 (PRC2) Methyltransferase” (J Med Chem, 2017).

The term IC50 denotes the concentration at which inhibition is half-maximal. A high value points to a need for much substance. `COc1ccccc1CC1CCCNC1` (stereo unspecified) showed an IC50 of 146 µM.
